Source: publication PMC4627693

Biological target: Cys-Aktide (Biotin-ZZRPRTSCF)
Test: cross-linking + pull-down

percent of total c-Src recovered by precipitation: 0.5%
Substance: c-Src tyrosine kinase (recombinant) (from UniProt P00523 1-533) (enzyme)
